Earlier results on one molecule are cited in patent US20030125235A1, “Treatment of diseases associated with cytokine production with inhibitors of the tec family of protein tyrosine kinases” (priority 2000, published 2003).

The chains behind the UniProt entries cited, without tags or fusion partners.
UniProt Q06187, whole entry, species assumed: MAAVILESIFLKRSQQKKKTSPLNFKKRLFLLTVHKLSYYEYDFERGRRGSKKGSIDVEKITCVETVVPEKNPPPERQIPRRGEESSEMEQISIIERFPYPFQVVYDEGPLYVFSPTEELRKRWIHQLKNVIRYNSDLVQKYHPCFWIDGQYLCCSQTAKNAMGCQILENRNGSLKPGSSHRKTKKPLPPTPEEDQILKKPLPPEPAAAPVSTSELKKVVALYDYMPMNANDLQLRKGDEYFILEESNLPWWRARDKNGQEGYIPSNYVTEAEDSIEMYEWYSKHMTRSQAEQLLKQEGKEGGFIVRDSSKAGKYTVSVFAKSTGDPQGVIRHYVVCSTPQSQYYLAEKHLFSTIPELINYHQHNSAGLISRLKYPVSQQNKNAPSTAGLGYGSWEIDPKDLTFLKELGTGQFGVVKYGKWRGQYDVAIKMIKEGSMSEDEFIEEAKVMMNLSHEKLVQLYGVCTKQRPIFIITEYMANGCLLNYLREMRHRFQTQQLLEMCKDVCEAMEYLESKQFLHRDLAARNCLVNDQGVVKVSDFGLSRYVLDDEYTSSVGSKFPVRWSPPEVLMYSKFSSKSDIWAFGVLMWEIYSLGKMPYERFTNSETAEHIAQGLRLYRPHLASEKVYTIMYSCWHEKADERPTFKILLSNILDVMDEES

The structures appear in SMILES notation.

This data set addresses Btk (Homo sapiens, UniProt Q06187). The note with it: literature (Kawakami et al. 1999; Mahajan et al. 1999); cited from earlier work.

For the molecule `C/C(O)=C(\C#N)C(=O)Nc1cc(Br)ccc1Br` [LFM-A13], the “inhibition of Btk” value is on record as “specifically inhibit Btk”.
